Bioassay records from PubChem.
Sampled rows, rich in hits. Any-hit rate of the full collection: about 1.6%.
PglD DTNB – blocks C. jejuni PglD acetyltransferase activity | hit rate 0.098% among 360,000 | purified PglD enzyme, DTNB colorimetric CoA detection | inhibition, % at 12.5 µM | AID 602405; in the data active = inhibition above about 16%, passing the limit was not always enough
Vif inh – inhibitors of HIV Vif. hit rate 0.35% among 340,000. inhibition, % at 7.49 µM. HEK293T cells, Vif self-association by quenched fluorescence, imaging, 24 h; in the data active = inhibition above about 50%, passing the limit was not always enough
ARNT TACC3 PPI – disruptors of human ARNT/TACC3 interaction | Q9Y6A5 | AlphaScreen His-ARNT PAS-B/GST-TACC3 binding, luminescence; TACC3 fragment carries E629A point mutation | inhibition, % at 9.99 µM | hit rate 0.66% among 390,000;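 active = mean inhibition of replicates at least 50% and at least half of replicates each reaching 50%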
Yeast UUG start – yeast start codon fidelity modulation; actives 0.13% (n = 350,000); activity score, % at 18.7 µM; S. cerevisiae UUG-firefly luciferase reporter, luminescence/redox ratio;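 active = replicate mean at a twofold rise or more, about +100% in these data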;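 note: firefly luciferase made from a UUG start codon reports start codon fidelity; reporter light over untreated wells divided by growth signal over untreated wells; some hits fall short of that in this replicate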
CAL PDZ FP-1 – CAL PDZ (human) peptide binding inhibition. purified CAL PDZ, TMR-peptide fluorescence polarization, 1 h. Q9HD26. inhibition, % at 24.9 µM. hit rate 0.92% among 300,000;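 active = mean inhibition of at least 30% with at least half of replicates also reaching 30%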
CAL PDZ FP-2 – human CAL PDZ-peptide interaction inhibition; purified CAL PDZ, TMR-peptide fluorescence polarization, 1 h; inhibition, % at 20 µM; hit rate 0.02% among 330,000; AID 504414;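 active = highest replicate inhibition of at least 40%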
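Control set: unlabelled peptide and DMSO controls / Material: purified CerCALP PDZ construct / Timing: 1 h incubation at room temperature before polarization reading / Doses: 20 µM, one dose / Detection: fluorescence polarization (mP)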
Of the large screens only hits and unclear results are named; the others gave an inactive call.

C[C@@H]1CN([C@@H](C)CO)C(=O)c2cccc(NC(=O)Nc3ccccc3)c2O[C@H]1CN(C)C(=O)NC1CCCCC1	none (no result: Vif inh, ARNT TACC3 PPI, CAL PDZ FP-1, CAL PDZ FP-2)
CCN(C(=O)c1cccc(NC(=O)c2ccccc2)c1)C1CCCCC1	CAL PDZ FP-1 57
CCN(C(=O)COc1ccccc1)C1CCCCC1	none
O=C(Nc1cccc(C(=O)NC2CCCCC2)c1)c1ccccc1	none (no result: ARNT TACC3 PPI)
CCN(C(=O)CCc1ccccc1)C1CCCCC1	CAL PDZ FP-1 64
CCC(=O)N1[C@H](CO)[C@H]2c3ccccc3N(C(=O)Nc3cccc(Cl)c3)C[C@H]21	none (no result: Vif inh, CAL PDZ FP-1, CAL PDZ FP-2)
C#CCN1[C@@H]2CCN(C2)c2cc(Br)ccc2S1(=O)=O	CAL PDZ FP-1 51
CCCNC(=O)N(C)C[C@H]1Oc2ncc(C#CC3CC3)cc2C(=O)N([C@@H](C)CO)C[C@H]1C	none (no result: Vif inh, CAL PDZ FP-1, CAL PDZ FP-2)
COc1ccc(NC(=O)C2CCC(N3C(=O)C4C5C=CC(C5)C4C3=O)CC2)cc1 (stereo not drawn)	none (no result: PglD DTNB, ARNT TACC3 PPI)
COc1ccc(NC(=O)[C@@H]2[C@@H]3C(=O)N(C4CCCCC4)C(=O)[C@@H]3C3c4ccccc4C=CN32)cc1 (stereo partly drawn)	ARNT TACC3 PPI 12
CN(C)C(=O)C[C@@H]1C=C[C@@H](NS(=O)(=O)c2ccccc2)[C@H](CO)O1	none (no result: Vif inh, CAL PDZ FP-1, CAL PDZ FP-2)
C#CCOCCOCCOCCNc1nc(N2CCN(C(=O)CCCCCCCCCCNC(=O)[C@H]([C@@H](C)CC)n3cc(CCCCCN)nn3)CC2)nc(N2CCN(C(=O)CCCCCCCCCCNC(=O)[C@H](CO)n3cc(CCCCCN)nn3)CC2)n1	Vif inh 96
C#CCOCCOCCOCCNc1nc(N2CCN(C(=O)CCCCCCCCCCNC(=O)[C@H]([C@@H](C)CC)n3cc(CCCCCN)nn3)CC2)nc(N2CCN(C(=O)CCCCCCCCCCNC(=O)[C@H](CCCCN)n3cc(CCCC(=O)O)nn3)CC2)n1	none
C#CCOCCOCCOCCNc1nc(N2CCOCC2)nc(N2CCN(C(=O)CCCCCCCCCCNC(=O)[C@@H]([C@H](C)CC)n3cc(CCCCCN)nn3)CC2)n1	none
C#CCOCCOCCOCCNc1nc(N2CCN(C(=O)CCCCCCCCCCNC(=O)[C@@H](CCC(=O)O)n3cc(CCCCCN)nn3)CC2)nc(N2CCN(C(=O)CCCCCCCCCCNC(=O)[C@H]([C@@H](C)CC)n3cc(CCCCCN)nn3)CC2)n1	ARNT TACC3 PPI 49
C#CCOCCOCCOCCNc1nc(N2CCN(C(=O)[C@H]([C@@H](C)CC)n3cc([C@@H](N)CO)nn3)CC2)nc(N2CCN(C(=O)[C@H](CCCCN)n3cc([C@@H](N)C(C)CC)nn3)CC2)n1 (stereo partly drawn)	none
C#CCOCCOCCOCCNc1nc(N2CCN(C(=O)[C@H](Cc3ccc(O)cc3)n3cc([C@@H](N)C(C)CC)nn3)CC2)nc(N2CCN(C(=O)[C@H](CCCCN)n3cc([C@@H](N)CO)nn3)CC2)n1 (stereo partly drawn)	ARNT TACC3 PPI 46
CC(C)NC(=O)N(C)C[C@H]1Oc2ccc(NS(=O)(=O)c3ccc(Cl)cc3)cc2C(=O)N([C@@H](C)CO)C[C@H]1C	none (no result: Vif inh, CAL PDZ FP-1, CAL PDZ FP-2)
COc1cccc(-c2ccc3c(c2)[C@H]2[C@H](CCN2C(=O)NC2CCCC2)[C@H](CO)N3C)c1	ARNT TACC3 PPI active (no result: Vif inh, CAL PDZ FP-1, CAL PDZ FP-2)
COc1ccc(-c2ccc3c(c2)[C@@H]2[C@@H](CCN2C(=O)NC2CCCCC2)[C@H](CO)N3C)cc1	none (no result: Vif inh, CAL PDZ FP-1, CAL PDZ FP-2)
COc1ccc(-c2ccc3c(c2)O[C@H](CN(C)C)[C@@H](C)CN([C@H](C)CO)S3(=O)=O)cc1	none (no result: Vif inh, CAL PDZ FP-1, CAL PDZ FP-2)
CO[C@H]1CN(C)C(=O)c2cc(NS(=O)(=O)c3ccccc3)ccc2OC[C@@H](C)N(Cc2cccnc2)C[C@@H]1C	none (no result: Vif inh, CAL PDZ FP-1, CAL PDZ FP-2)
CCN(C(=O)c1ccc(NC(=O)Cc2ccccc2)cc1)c1ccccc1	CAL PDZ FP-1 48
CN(C(=O)c1ccc(NC(=O)Cc2ccccc2)cc1)c1ccccc1	none
COc1ccccc1NC(=O)CCC(=O)Nc1cc(OC)c(NC(=O)c2cccs2)cc1OC	ARNT TACC3 PPI 26 (no result: PglD DTNB, Yeast UUG start, CAL PDZ FP-1)
COc1cc(NC(=O)c2cccs2)ccc1NC(=O)Cc1ccccc1	CAL PDZ FP-1 42
COc1cc(NC(=O)Cc2ccccc2)ccc1NC(=O)Cc1ccccc1	none
CC(C)CC#Cc1cnc2c(c1)C(=O)N([C@H](C)CO)C[C@@H](C)[C@@H](CN(C)C(=O)c1cnccn1)O2	none (no result: Vif inh, CAL PDZ FP-1, CAL PDZ FP-2)
COc1ccc(CN(C(=O)Cn2nnc(-c3ccc(C)o3)n2)C(C(=O)NCC2CCCO2)c2ccco2)cc1 (stereo not drawn)	Vif inh 71 (no result: PglD DTNB, Yeast UUG start)
C[C@H]1CCCCO[C@@H](CN(C)S(=O)(=O)c2ccc(F)cc2)[C@@H](C)CN([C@@H](C)CO)C(=O)c2cc(NS(=O)(=O)c3cn(C)cn3)ccc2O1	none (no result: Vif inh, CAL PDZ FP-1, CAL PDZ FP-2)
Cc1ccc(-c2nn(C)c(=O)c3ccccc23)cc1CN1CCCCC1	CAL PDZ FP-1 47 (no result: PglD DTNB, Yeast UUG start)
CCCCCC(=O)NC(=S)Nc1ccc2oc(=O)ccc2c1	CAL PDZ FP-1 86 (no result: PglD DTNB, Yeast UUG start)
COc1cc(-c2cc(C(=O)Nc3nc4ccccc4s3)c3ccccc3n2)cc(OC)c1OC	CAL PDZ FP-1 87 (no result: PglD DTNB, Yeast UUG start)
COc1cc(-c2cc(C(=O)Nc3ccc(O)cc3)c3ccccc3n2)cc(OC)c1OC	none (no result: PglD DTNB, Yeast UUG start)
CC1CC(C)C(=NNC(N)=O)C(C(O)CC2CCC(=O)NC2=O)C1 (stereo not drawn)	CAL PDZ FP-1 51
CN(C)S(=O)(=O)c1cccc(C(=O)NC2CCCc3ccccc32)c1 (stereo not drawn)	none
CN(C)S(=O)(=O)c1ccc(C(=O)NC2CCCc3ccccc32)cc1 (stereo not drawn)	CAL PDZ FP-1 71
O=C(C1CC1)N1C[C@H]2[C@@H](c3ccccc31)[C@@H](CO)N2C(=O)c1ccccn1	none (no result: Vif inh, CAL PDZ FP-1, CAL PDZ FP-2)
COc1ccc(NC(=O)C2CCN(S(=O)(=O)c3ccc(OC)c(OC)c3)CC2)c(OC)c1	none
COc1ccc(NC(=O)C2CCN(S(=O)(=O)c3ccc(N4CCCC4=O)cc3)CC2)c(OC)c1	CAL PDZ FP-1 34
COc1ccc(NC(=O)c2cccc(S(=O)(=O)N3CCN(C)CC3)c2)c(OC)c1	Vif inh 54
COc1ccc(NC(=O)c2cccc(S(=O)(=O)N3CCc4ccccc43)c2)c(OC)c1	none (no result: ARNT TACC3 PPI, CAL PDZ FP-1, CAL PDZ FP-2)
C[C@H]1CN([C@@H](C)CO)C(=O)c2cc(NC(=O)CCC(F)(F)F)ccc2O[C@H]1CN(C)Cc1ccc2c(c1)OCO2	none (no result: Vif inh, ARNT TACC3 PPI, CAL PDZ FP-1, CAL PDZ FP-2)
NC(=O)C1c2ccccc2Oc2ccccc21	CAL PDZ FP-1 75 (no result: CAL PDZ FP-2)
NNC(=O)C1c2ccccc2Oc2ccccc21	none (no result: PglD DTNB, Yeast UUG start)
CC(=O)NC(c1ccccc1)c1cc([N+](=O)[O-])c2cccnc2c1O (stereo not drawn)	none
CCC(=O)NC(c1cccs1)c1cc([N+](=O)[O-])c2cccnc2c1O (stereo not drawn)	ARNT TACC3 PPI 71
